# Source: PubChem BioAssay AID588335 (The Scripps Research Institute Molecular Screening Center, 2011)
# The entries are a selection whose mix differs from that of the whole data set. Calls of active or inactive are those of the source. No stated cut-off is given here; in the data, active means inhibition above about 30%; inactive means the rest.
# Test: GDH-TPI coupling enzyme inhibitors, primary screen, artefact control for M. tuberculosis FBA inhibitor project, biochemical, absorbance, full deck (AID 588335);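 further: 0% = DMSO wells and 100% = wells lacking the enzyme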
# Conditions: GDH-TPI coupled enzyme counterscreen, NADH absorbance; at 4.8 µM; hits give high values
row,Structure (SMILES),inhibition
1,CCC(=O)N(c1ccccc1)C1(COC)CCN(CCc2cccs2)CC1,inactive: 14.6%
2,CCC(=O)N(c1ccccc1)C1(COC)CCN(CCn2nnn(CC)c2=O)CC1,inactive: -13.6%
